Laboratory results from paper PMC4138375, “CNX-013-B2, a unique pan tissue acting rexinoid, modulates several nuclear receptors and controls multiple risk factors of the metabolic syndrome without risk of hypertriglyceridemia, hepatomegaly and body weight gain in animal models” (Diabetology & Metabolic Syndrome, 2014).

Sequences of proteins named here, by UniProt entry; tags and fusion partners are left off.
UniProt P37231, whole entry, species assumed: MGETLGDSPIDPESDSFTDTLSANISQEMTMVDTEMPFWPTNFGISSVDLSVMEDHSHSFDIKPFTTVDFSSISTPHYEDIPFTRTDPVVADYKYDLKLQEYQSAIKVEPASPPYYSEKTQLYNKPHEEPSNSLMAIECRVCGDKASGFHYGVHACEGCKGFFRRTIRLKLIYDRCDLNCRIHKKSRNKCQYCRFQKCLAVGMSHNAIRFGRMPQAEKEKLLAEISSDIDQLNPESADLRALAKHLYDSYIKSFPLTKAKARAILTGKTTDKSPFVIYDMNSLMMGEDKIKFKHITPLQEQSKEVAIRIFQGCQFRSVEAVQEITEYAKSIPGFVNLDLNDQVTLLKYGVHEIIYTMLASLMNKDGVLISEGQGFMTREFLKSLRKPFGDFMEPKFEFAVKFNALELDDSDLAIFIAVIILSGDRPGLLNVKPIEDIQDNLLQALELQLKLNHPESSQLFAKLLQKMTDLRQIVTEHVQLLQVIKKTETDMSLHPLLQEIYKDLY

Target: T1, PPARγ (Homo sapiens, UniProt P37231)
T1 construct: expressed in transfected cells; host or cells: HEK293
Experiment: Transactivation of PPARγ in absence of RXR
Format: cell-based
Details: Additional file 1E

Compound: CN(CCOc1ccc(CC2SC(=O)NC2=O)cc1)c1ccccn1 (stereo not shown) [rosiglitazone]
- Activation of PPARγ in absence of RXR: activated
